For this assay, the target named is 3×FLAG-Tsc13 E91A (S. cerevisiae) (UniProt Q99190). Description: co-IP; membrane fractions of yeast cells solubilized with 1% Triton X-100; immunoprecipitation with anti-FLAG M2 affinity gel at 4 °C overnight (50 mM Hepes/NaOH pH 7.5, 0.2 M sorbitol, 150 mM NaCl, 1 mM DTT); washed with buffer containing 0.1% Triton X-100; immunoblotting with anti-FLAG and …; band intensity of the immunoprecipitate relative to the input.

This note sets out measurements from PMC10864336.

The substance “Elo3-6×HA (from UniProt P40319 1-345) (enzyme)” registered a co-precipitated quantity, percent of that with WT Tsc13 of 21%.
